The text below walks through data of patent US7071177B2, “P-(sulfonyl) aryl and heteroarylamines as anti-inflammatory agents” (Syntex (U.S.A.) LLC, priority 2000, dated 2006).

By UniProt entry, the sequences of proteins in these tests, tags left out. Residues count along the entry.
UniProt P23219, 24-599 limits assumed: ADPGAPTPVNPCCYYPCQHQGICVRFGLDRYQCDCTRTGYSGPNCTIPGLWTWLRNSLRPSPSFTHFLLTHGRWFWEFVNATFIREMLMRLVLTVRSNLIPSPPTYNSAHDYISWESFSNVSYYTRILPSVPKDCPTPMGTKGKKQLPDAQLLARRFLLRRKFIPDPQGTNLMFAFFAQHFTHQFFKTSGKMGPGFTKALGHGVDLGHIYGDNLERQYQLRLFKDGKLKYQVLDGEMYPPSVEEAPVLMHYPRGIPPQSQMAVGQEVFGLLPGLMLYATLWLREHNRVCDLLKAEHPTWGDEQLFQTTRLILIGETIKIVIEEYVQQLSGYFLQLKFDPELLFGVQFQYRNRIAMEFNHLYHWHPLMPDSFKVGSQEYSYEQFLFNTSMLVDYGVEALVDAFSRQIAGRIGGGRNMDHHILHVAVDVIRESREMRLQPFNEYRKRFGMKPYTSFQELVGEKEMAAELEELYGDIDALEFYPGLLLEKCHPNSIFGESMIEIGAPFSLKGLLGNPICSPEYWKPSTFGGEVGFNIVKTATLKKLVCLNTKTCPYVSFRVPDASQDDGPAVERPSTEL
UniProt P35354, 18-604 limits assumed: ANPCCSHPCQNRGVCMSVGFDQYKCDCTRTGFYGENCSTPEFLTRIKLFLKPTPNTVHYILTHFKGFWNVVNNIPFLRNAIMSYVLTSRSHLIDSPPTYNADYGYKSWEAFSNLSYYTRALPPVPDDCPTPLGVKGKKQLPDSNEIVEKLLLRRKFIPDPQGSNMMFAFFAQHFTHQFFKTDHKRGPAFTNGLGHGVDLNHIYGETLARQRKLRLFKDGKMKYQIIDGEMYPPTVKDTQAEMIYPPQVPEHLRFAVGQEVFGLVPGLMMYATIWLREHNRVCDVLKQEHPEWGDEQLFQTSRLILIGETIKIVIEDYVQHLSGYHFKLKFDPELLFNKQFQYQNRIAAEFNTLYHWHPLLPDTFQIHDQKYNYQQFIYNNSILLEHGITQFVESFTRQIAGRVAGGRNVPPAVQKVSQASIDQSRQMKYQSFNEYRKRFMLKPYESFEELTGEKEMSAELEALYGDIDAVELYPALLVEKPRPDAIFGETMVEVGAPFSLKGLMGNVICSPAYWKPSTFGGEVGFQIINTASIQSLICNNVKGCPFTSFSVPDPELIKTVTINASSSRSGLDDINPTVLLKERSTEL

Assay [1] has as its target COX I (Homo sapiens, UniProt P23219). The assay is described as follows: Inhibition of COX I in vitro (radiometric, partially purified enzyme). The following applies: read-out: COX I IC50, 10 min preincubation, 20 micromolar [14C]arachidonic acid. As to the method:
(§1) The COX I and COX II inhibitory activity of compounds of this invention in vitro was determined using partially purified COX I and COX II enzymes, prepared as described in J. Barnett et. al., Biochim. Biophys. Acta, 1209, 130–139 (1994).
(§2) COX I and COX II samples were diluted with Tris-HCl buffer (50 mM Tris-HCl, pH 7.9) containing 2 mM EDTA and 10% glycerol and reconstituted by incubating first with 2 mM phenol for 5 minutes and then with 1 micromolar hematin for an additional 5 minutes. 125 μl of the reconstituted COX I or COX II enzyme were preincubated for 10 minutes at room temperature in a shaking water bath with the compounds of the invention dissolved in 2–15 μl of DMSO or the carrier vehicles (control samples). The enzyme reaction was initiated by adding 25 μl of 1-[14C]arachidonic acid (80,000–100,000 cpm/tube; 20 micromolar final concentration) and the reaction was allowed to continue for an additional 45 seconds. The reaction was terminated by adding 100 μl of 2N HCl and 750 μl water. An aliquot (950 μl) of the reaction mixture was loaded onto a 1 ml C18 Sep-Pak column (J. T. Baker, Phillipsburg, N.J.) which had been previously washed with 2–3 ml methanol and equilibrated with 5–6 ml distilled water. Oxygenated products were quantitatively eluted with 3 ml of acetonitrile/water/acetic acid (50:50:0.1, v/v) and the radioactivity in the eluate determined in a scintillation counter.

Assay [2] has as its target COX II (Homo sapiens, UniProt P35354). The assay is described as follows: Inhibition of COX II in vitro (radiometric, partially purified enzyme). The following applies: read-out: COX II IC50, 10 min preincubation, 20 micromolar [14C]arachidonic acid. The procedure:
as §1, §2

Turning to `CCCCN(Cc1ccccc1OC)c1ccc(S(C)(=O)=O)cc1`, the half-maximal inhibitory concentration (IC50) is above 40000 nM in assay [1] and below 200 nM in assay [2].

In the case of `CCCCN(Cc1ccccc1F)c1ccc(S(C)(=O)=O)cc1`, the IC50 in assay [1] is above 15000 nM; in assay [2], below 200 nM. For `CCCCN(Cc1ccc(OC)cc1)c1ccc(S(C)(=O)=O)cc1` the same measures were above 40000 nM and below 200 nM.

Turning to `CCCCN(Cc1ccc(F)cc1F)c1ccc(S(C)(=O)=O)cc1`, the 50% inhibitory concentration (IC50) in assay [1] was above 40000 nM; in assay [2], below 200 nM. Turning to `CCCCN(Cc1ccc(Cl)cc1)c1ccc(S(C)(=O)=O)cc1`, the IC50 in assay [1] is above 40000 nM; in assay [2], below 200 nM.

Turning to `CCCCCN(Cc1ccc(F)cc1)c1ccc(S(C)(=O)=O)cc1`, the results for the IC50 in assay [1] and in assay [2] were above 40000 nM and below 200 nM, respectively.

On to `CCCCN(Cc1ccc(F)cc1)c1ccc(S(C)(=O)=O)cc1`, for which the IC50 in assay [2] was below 200 nM. As for `CCCN(Cc1ccc(F)cc1)c1ccc(S(C)(=O)=O)cc1`, the IC50 is above 40000 nM in assay [1] and below 200 nM in assay [2].

As to `CCCCN(Cc1ccccc1Cl)c1ccc(S(C)(=O)=O)cc1`, the half-inhibitory concentration (IC50) in assay [1] was above 20000 nM; in assay [2] it was below 200 nM. As to `CS(=O)(=O)c1ccc(N(Cc2ccc(F)cc2)CC2CC2)cc1`, the concentration for half-maximal inhibition (IC50) is above 40000 nM in assay [1] and below 200 nM in assay [2].

The term IC50 denotes the concentration needed to halve the response being measured.
